Earlier results as cited in patent publication US20210315865A1 (Biohaven Therapeutics Ltd., priority 2018, published 2021).

How the values were obtained:
[1] = tested on: liver function tests; settings: in vivo
[2] = tested on: oral mucosa; settings: administered directly to the oral mucosa

SMILES: Nc1nc2ccc(OC(F)(F)F)cc2s1 [riluzole, 6-(trifluoromethoxy)benzothiazol-2-amine]
- effects on liver function tests [1]: dose-dependent effects on liver function tests
- oral numbness [2]: intense oral numbness
